The source of these data is patent US12110286B2, “Benzimidazolone derived inhibitors of BCL6” (Cancer Research Technology Limited, priority 2017, dated 2024).

For this experiment, the target named is Trx-6×His-BCL6 (human BCL6 BTB domain covering amino-acid sequence 5-129) (Homo sapiens (Human), UniProt P41182). Description: HTRF in vitro assay (BCL6 / BCOR-AF633 peptide). It is filed as binding. The note with it: further generated data; 1 nM Trx-6×His-BCL6, 300 nM BCOR-AF633 peptide, 0.5 nM anti-6×His-Terbium cryptate. On the procedure: The % inhibition at each concentration was calculated by normalising FRET ratio to the appropriate high (DMSO with all reagents) and low (DMSO without BCL6) controls.
A general note: Time-resolved FRET reads energy transfer from a long-lived donor to a nearby acceptor.
For the molecule `Cn1c(=O)n(CCC(C)(C)O)c2cc(Nc3nc(Cl)ncc3Cl)ccc21` [Example 1n, 5-[(2,5-dichloropyrimidin-4-yl)amino]-3-(3-hydroxy-3-methyl-butyl)-1-methyl-benzimidazol-2-one], the “HTRF pIC50” value is on record as 5.82.

For the molecule `Cn1c(=O)n(CCC(C)(C)O)c2cc(Nc3ncnc(Cl)c3C#N)ccc21` [Example 1p, 4-chloro-6-[[3-(3-hydroxy-3-methyl-butyl)-1-methyl-2-oxo-benzimidazol-5-yl]amino]-pyrimidine-5-carbonitrile], the “HTRF pIC50” value was 5.56.

In the case of `C[C@H](O)CCn1c(=O)n(C)c2ccc(Nc3ccnc(Cl)c3C#N)cc21` [Example 10h], the “HTRF pIC50” value was 5.32.

As to `C[C@@H](O)CCn1c(=O)n(C)c2ccc(Nc3ccnc(Cl)c3C#N)cc21` [Example 10i], the “HTRF pIC50” value came to 5.81.
